The source of these data is article PMC11249646, “Small-Molecule Disruptors of the Interaction between Calcium- and Integrin-Binding Protein 1 and Integrin αIIbβ3 as Novel Antiplatelet Agents” (ACS Pharmacology & Translational Science, 2024).

Sequences of proteins named here, by UniProt entry; tags and fusion partners are left off.
UniProt Q99828, whole entry: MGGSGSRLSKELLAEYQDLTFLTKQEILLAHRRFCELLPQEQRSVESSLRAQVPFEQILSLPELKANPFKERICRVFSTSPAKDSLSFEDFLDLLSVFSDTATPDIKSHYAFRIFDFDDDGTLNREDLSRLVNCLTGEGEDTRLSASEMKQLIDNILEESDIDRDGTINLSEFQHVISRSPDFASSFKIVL

This test deals with CIB1 and αIIb interaction (CIB1-GST : F-αIIb peptide) (Homo sapiens, UniProt Q99828). Description: FP assay, 1536-well qHTS format (primary and confirmatory screen). Type of test: binding. To be noted: qHTS primary screen hits, Table S2; for Efficacy (%): negative = inhibition; for Curve Class: negative sign = inhibitory curve. On the technique in general: Quantitative high-throughput screening tests each substance at several concentrations.

Where [1] appears, read: several classes where COUNT > 1.

The structures appear in SMILES notation.

With `COc1c(O)cccc1[C@H](O)C1CCN(CCc2ccc(F)cc2)CC1` [NCGC00168042-01], the “Efficacy (%)” value is -53% and the “Curve Class” value is -2.2.

Usually IC50 stands for the concentration that gives 50% inhibition. A higher IC50 goes with weaker potency. With `O=C(CCC1=[N+]2C(=Cc3ccc(-c4cccs4)n3[B-]2(F)F)C=C1)NCCOCCOCCOc1ccc(-n2ncc3c2CCC[C@H]3NC(=O)c2ccccn2)cc1`, the IC50 came out at 14.1 µM and the “Efficacy (%)” value is -103%. The “Curve Class” value under setting [1] is listed as -1.1.

Turning to `Cc1ccc(S(=O)(=O)N[C@@H](Cc2ccccc2)C(=O)CCl)cc1`, the IC50 stood at 4 µM and the “Efficacy (%)” value is recorded as -20%. The “Curve Class” value under setting [1] was -1.2.

Consider `O=C1C[C@](c2ccc(N3CCOCC3)cc2)(c2ccsc2)NC(=O)C1Sc1ccccc1Cl` (stereo partly shown), for which the half-inhibitory concentration (IC50) stood at 26.1 µM and the “Efficacy (%)” value is -34%.
